According to PubChem BioAssay (NCATS):
Only a part is listed here, and it is no random draw. Records with an inconclusive call do not appear. Some salts and complexes are drawn in separate pieces, as the source files them; their charges need not balance. Activity calls are given as the source filed them. Unless noted, the call rests on the fitted dose curve; in most records, active means well fitted curve in the direction sought with a large enough effect; inconclusive means small, poorly fitted or top-dose-only effect, or another doubt; inactive means no such curve, though single readings can be large; an effect the other way counts as inactive or inconclusive.

Sequences of proteins named here, by UniProt entry; tags and fusion partners are left off.
UniProt P08684, whole entry: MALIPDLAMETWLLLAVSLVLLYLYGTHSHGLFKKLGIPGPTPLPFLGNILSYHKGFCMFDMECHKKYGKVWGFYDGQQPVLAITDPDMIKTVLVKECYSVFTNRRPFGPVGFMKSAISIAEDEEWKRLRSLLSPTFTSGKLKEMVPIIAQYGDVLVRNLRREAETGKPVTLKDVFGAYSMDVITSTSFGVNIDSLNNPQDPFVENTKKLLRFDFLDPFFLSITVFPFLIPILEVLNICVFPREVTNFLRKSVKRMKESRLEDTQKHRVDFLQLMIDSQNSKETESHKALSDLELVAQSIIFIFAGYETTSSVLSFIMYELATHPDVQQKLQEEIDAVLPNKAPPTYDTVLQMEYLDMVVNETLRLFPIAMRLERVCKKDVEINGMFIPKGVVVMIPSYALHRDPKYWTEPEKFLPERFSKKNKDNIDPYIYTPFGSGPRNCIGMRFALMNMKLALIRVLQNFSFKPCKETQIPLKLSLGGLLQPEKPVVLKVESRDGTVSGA
UniProt P10635, whole entry: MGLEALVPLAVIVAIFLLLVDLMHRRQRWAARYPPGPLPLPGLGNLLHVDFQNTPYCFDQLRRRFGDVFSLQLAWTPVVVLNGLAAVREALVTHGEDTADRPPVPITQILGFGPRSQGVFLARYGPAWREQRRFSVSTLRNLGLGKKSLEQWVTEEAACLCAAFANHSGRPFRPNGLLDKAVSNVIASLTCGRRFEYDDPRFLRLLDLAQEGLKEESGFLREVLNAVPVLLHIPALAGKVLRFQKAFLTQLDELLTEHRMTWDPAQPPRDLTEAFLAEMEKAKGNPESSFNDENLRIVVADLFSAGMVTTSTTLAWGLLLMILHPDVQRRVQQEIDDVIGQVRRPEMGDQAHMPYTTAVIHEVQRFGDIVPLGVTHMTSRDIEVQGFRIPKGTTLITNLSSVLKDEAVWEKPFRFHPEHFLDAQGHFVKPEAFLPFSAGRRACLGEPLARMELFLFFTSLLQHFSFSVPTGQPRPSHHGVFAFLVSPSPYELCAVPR
UniProt P33261, whole entry: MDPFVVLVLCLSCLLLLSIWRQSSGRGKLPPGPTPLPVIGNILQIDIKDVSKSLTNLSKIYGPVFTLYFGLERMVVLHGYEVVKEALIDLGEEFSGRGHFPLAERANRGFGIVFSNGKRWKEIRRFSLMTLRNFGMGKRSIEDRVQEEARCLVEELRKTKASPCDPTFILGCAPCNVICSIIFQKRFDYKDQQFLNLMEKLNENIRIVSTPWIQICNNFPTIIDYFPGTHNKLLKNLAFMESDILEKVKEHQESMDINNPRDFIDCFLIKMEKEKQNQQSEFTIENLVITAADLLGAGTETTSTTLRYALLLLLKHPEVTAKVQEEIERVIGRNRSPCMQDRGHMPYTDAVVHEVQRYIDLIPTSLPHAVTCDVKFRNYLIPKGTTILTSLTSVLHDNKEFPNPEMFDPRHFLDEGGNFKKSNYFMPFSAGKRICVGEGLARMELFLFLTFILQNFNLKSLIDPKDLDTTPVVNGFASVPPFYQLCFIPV
UniProt P05177, whole entry: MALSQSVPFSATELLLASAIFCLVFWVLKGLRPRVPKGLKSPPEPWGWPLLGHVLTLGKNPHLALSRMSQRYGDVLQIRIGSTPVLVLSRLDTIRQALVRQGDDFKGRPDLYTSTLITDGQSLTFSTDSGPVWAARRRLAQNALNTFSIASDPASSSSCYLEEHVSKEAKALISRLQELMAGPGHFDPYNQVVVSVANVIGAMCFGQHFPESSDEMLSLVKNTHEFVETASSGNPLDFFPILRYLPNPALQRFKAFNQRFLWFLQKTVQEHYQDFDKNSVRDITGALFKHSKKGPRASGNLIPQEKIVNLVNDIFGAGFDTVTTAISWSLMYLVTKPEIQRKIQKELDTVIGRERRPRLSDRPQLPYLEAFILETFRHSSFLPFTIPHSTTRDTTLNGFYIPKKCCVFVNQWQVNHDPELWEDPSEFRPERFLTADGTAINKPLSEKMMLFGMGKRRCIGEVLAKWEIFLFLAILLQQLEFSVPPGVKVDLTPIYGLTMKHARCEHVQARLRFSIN
UniProt O75469, whole entry: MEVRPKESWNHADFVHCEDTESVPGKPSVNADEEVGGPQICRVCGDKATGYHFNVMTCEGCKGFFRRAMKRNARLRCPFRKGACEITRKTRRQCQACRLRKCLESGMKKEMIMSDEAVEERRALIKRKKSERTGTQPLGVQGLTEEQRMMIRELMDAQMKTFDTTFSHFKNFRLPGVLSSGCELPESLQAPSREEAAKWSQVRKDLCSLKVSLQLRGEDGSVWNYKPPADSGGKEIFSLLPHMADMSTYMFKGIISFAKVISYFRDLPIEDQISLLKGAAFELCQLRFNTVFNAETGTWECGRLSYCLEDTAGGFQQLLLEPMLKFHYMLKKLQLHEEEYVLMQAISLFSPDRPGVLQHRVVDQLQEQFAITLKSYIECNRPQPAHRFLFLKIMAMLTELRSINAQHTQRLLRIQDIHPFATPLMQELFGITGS

How the values were obtained:
CRL-7250 [1] = test: Cytotoxic Profiling of Annotated Libraries Using Quantitative High-Throughput Screening (AID 1296008); settings: Five cell lines viability, CellTiter-Glo ATP luminescence, 48-72 h; active compounds read low; further: nearly all actives have a fitted effect of over 60% in size; on max response: on the % scale 0 is the no-effect control and ±100 the full control effect
Outline: (§1)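 Cells exposed to compounds for 48 or 72 hr at 37 degrees Celsius. Viability read as ATP-coupled luminescence with CellTiter-Glo after 10 min at room temperature.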

HaCat [2] = test: as above; settings: Five cell lines viability, CellTiter-Glo ATP luminescence, 48-72 h; active compounds read low
Outline: as §1

KB-3-1 = test: as above; settings: Five cell lines viability, CellTiter-Glo ATP luminescence, 48-72 h; active compounds read low
Outline: as §1

NIH3T3 = test: as above; settings: Five cell lines viability, CellTiter-Glo ATP luminescence, 48-72 h; active compounds read low
Outline: as §1

CRL-7250 [3] = test: qHTS assay to identify novel small-molecules to repurpose for Merkel cell carcinoma treatment (AID 1296009); settings: MCC and control cell lines, CellTiter-Glo viability, 72 h; at 17.4 µM (top of the series); further: nearly all actives have a fitted effect of over 60% in size; on activity change, negative = cytotoxicity: on the % scale 0 is the no-effect control and ±100 the full control effect
Outline: (§2)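 Cells were treated for 72 hr at 37 degree celsius with compounds in 8- or 11-point dose response. Viability was read by CellTiter-Glo luminescence, normalized to no-cell (cytotoxicity) and DMSO controls.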

HACAT [4] = test: as above; settings: MCC and control cell lines, CellTiter-Glo viability, 72 h; at 92 µM (top of the series) unless noted
Outline: as §2

HEK293 = test: Cytotoxic Profiling of Annotated Libraries Using Quantitative High-Throughput Screening (AID 1296008); settings: Five cell lines viability, CellTiter-Glo ATP luminescence, 48-72 h, active compounds read low; further: nearly all actives have a fitted effect of over 60% in size; on max response: on the % scale 0 is the no-effect control and ±100 the full control effect
Outline: as §1

MCC-13 = test: qHTS assay to identify novel small-molecules to repurpose for Merkel cell carcinoma treatment (AID 1296009); settings: MCC and control cell lines, CellTiter-Glo viability, 72 h; at 92.7 µM (top of the series); further: nearly all actives have a fitted effect of over 60% in size
Outline: as §2

[5] = qHTS drug screen for cell cycle checkpoint inhibitors in PARPi-resistant BRCA-mutant ovarian cancer cell lines. (AID 1963452; calls by dose curve); settings: PEO1/OlaR viability, CellTiter-Glo luminescence, 96 h; active compounds read low
Outline: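 PEO1, PEO4 and PEO1/OlaR ovarian cancer cells, 600 per well, exposed 96 h at 37C to a dilution series. Viability read by CellTiter-Glo luminescence, normalized to DMSO and empty wells; activity summarized as Z-AUC.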

[6] = target: Cytochrome P450 3A4 (Homo sapiens) (UniProt P08684); test: qHTS for inhibitors of CYP3A4 against the NCATS DSHEA and TCM libraries (AID 1919971); settings: recombinant CYP3A4 enzyme activity, luminescence qHTS; at 34.1 µM (top of the series);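 further: on the % scale 0 is the no-effect control and ±100 the full control effect; inhibition lowers luminescence from luciferin made by CYP3A4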
Outline: (§3)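 Luminescent P450-Glo format: compounds preincubated 15 min with enzyme and luciferin substrate, reaction run 30-45 min after NADPH regeneration solution. Intraplate controls: ketoconazole for CYP3A4 and CYP2C19, sulfaphenazole for CYP2C9.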

[7] = target: Cytochrome P450 2D6 (Homo sapiens) (UniProt P10635); test: qHTS for inhibitors of CYP2D6 against the NCATS DSHEA and TCM libraries (AID 1919972); settings: CYP2D6 enzymatic inhibition, luminescence qHTS; at 34.1 µM (top of the series); further: on the % scale 0 is the no-effect control and ±100 the full control effect
Outline: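 Luminescent P450-Glo read-out of CYP2D6 turnover of a luciferin substrate after NADPH-driven reaction of 30-45 min at room temperature. Compounds were first preincubated 15 min with enzyme at titrated concentrations; quinidine was the intraplate control.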

[8] = target: Cytochrome P450 2C19 (Homo sapiens) (UniProt P33261); test: qHTS for inhibitors of CYP2C19 against the NCATS DSHEA and TCM libraries (AID 1919974); settings: CYP2C19 enzyme inhibition, luminescence qHTS;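 further: luminescence from luciferin released by CYP2C19 oxidation of a pro-luciferin substrate; potency means the concentration at half of the fitted maximal effect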
Outline: as §3

[9] = KB-3-1 P-gp reporter qHTS against the NCATS DSHEA and TCM libraries (AID 1919975); settings: KB-3-1 cells, P-gp reporter signal; at 26.1 µM (top of the series); further: 0% is about no effect
Outline: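 Cell viability by CellTiter-Glo luminescence following ~72 h compound exposure (concentration-response). Uses parental, non-P-gp-overexpressing KB-3-1 line, 500 cells/well in DMEM/10% FBS, attached ~4 h before dosing.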

[10] = target: Cytochrome P450 1A2 (Homo sapiens) (UniProt P05177); test: qHTS for inhibitors of CYPIA2 against the NCATS DSHEA and TCM libraries (AID 1919976); settings: recombinant CYP1A2 enzyme activity, luminescence; further: potency means the concentration at half of the fitted maximal effect
Outline: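 Human CYP1A2 with pro-luciferin substrate (typically 100 mM KPO4), 15 min preincubation with compound, then 1x NADPH regeneration for 30-45 min at room temperature in the dark. Luciferin quantified by luciferase luminescence; furafylline intraplate control.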

[11] = KB-8-5-11 P-gp reporter qHTS against the NCATS DSHEA and TCM libraries (AID 1919977); settings: KB-8-5-11 cells; at 26.1 µM (top of the series); further: 0% is about no effect
Outline: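 CellTiter-Glo luminescence measured viability after ~72 h exposure (37C, 5% CO2) of KB-8-5-11 cervical adenocarcinoma cells overexpressing P-gp. Colchicine was omitted during assay. Substances were tested as titrations.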

[12] = Dual reporter qHTS for agonist of Pregnane X Receptor (hPXR) against the NCATS DSHEA and TCM libraries: Fluorescence readout (AID 1920058); settings: PXR dual reporter cells; at 40 µM (top of the series); further: 0% is about no effect
Outline: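 hPXR-Luc HepG2 cells, 2000/well in charcoal-stripped serum, attached 5 h, dosed for ~24 h at 37 °C. Fluorescence read is CellTiter-Fluor viability (Ex/Em 405/540 nm); rifampicin positive, tetraoctyl ammonium bromide (92 µM) cytotoxicity controls.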

[13] = target: Nuclear receptor subfamily 1 group I member 2 (Homo sapiens) (UniProt O75469); test: Dual reporter qHTS for antagonist of Pregnane X Receptor (hPXR) against the NCATS DSHEA and TCM libraries: Luminescence Readout (AID 1920060); settings: hPXR dual reporter cells, luciferase luminescence, antagonist mode; at 40 µM (top of the series);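 further: HepG2 cells carrying hPXR luciferase reporter stimulated with rifampicin at 2 µM; 0% is about no effect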
Outline: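 hPXR-Luc HepG2 cells exposed 24 h at 37 C to compounds with 2 uM rifampicin in antagonist mode; luciferase luminescence measured by ONE-Glo, with CellTiter-Fluor viability read beforehand.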

[14] = Quantitative High-Throughput drug screen in 47 multiple myeloma cell lines against the NCATS MIPE library collection: XG6_PLB cell viability assay (AID 1919865); settings: XG6 myeloma viability, CellTiter-Glo ATP luminescence, 48 h; further: potency means the concentration at half of the fitted maximal effect; nearly all actives have a fitted effect of over 40% in size
Outline: (§4)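 500 cells/well per myeloma line exposed to pinned MIPE 4.0 compounds for 48 h at 37 °C, 5% CO2. Viability read as ATP by CellTiter-Glo luminescence, normalised to DMSO-only (100%) and media-only (0%) wells.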

[15] = Quantitative High-Throughput drug screen in 47 multiple myeloma cell lines against the NCATS MIPE library collection: VP6_DJ cell viability assay (AID 1919867); settings: ATP luminescence, 48 h; at 23.2 µM (top of the series); further: nearly all actives have a fitted effect of over 40% in size
Outline: as §4

[16] = Quantitative High-Throughput drug screen in 47 multiple myeloma cell lines against the NCATS MIPE library collection: RPMI8226_ATCC cell viability assay (AID 1919871); settings: RPMI8226 myeloma viability, CellTiter-Glo ATP luminescence, 48 h; at 23.2 µM (top of the series); further: nearly all actives have a fitted effect of over 30% in size
Outline: as §4

In the case of C/C1=C2N=C(/C=C3N=C(/C(C)=C4\N=C(C(CC(N)=O)C4(C)CCC(=O)NCC(C)OP(=O)([O-])OC4C(CO)OC(n5cnc6cc(C)c(C)cc65)C4O)C4(C)N=C1C(CCC(N)=O)C4(C)CC(N)=O)C(CCC(N)=O)C\3(C)C)C(CCC(N)=O)C/2(C)CC(N)=O.[C-]#N.[Co] (stereo not drawn), the outcome (CRL-7250 [1]) is reported as “inactive”, the outcome (HaCat [2]) is reported as “inactive” and the max response (KB-3-1) is reported as inactive: -7.72%. The max response (NIH3T3) was inactive: 0.696%, the outcome (CRL-7250 [3]) was “inactive” and the outcome (HACAT [4]) was “inactive [at 17.4 µM]”.
In the case of Cc1cccc([N+](=O)[O-])c1[N+](=O)[O-], the max response (CRL-7250 [1]) is reported as inactive: -4.04%, the max response (HEK293) is reported as inactive: 0.892% and the outcome (HaCat [2]) is reported as “inactive”. The max response (KB-3-1) was inactive: -16.9%, the max response (NIH3T3) was inactive: -8.9% and the outcome (HACAT [4]) was “inactive”. The activity change, negative = cytotoxicity (MCC-13) was inactive: 4.39%.
For OCCSCCO, the max response (CRL-7250 [1]) was inactive: 2.1%, the max response (HEK293) was inactive: 3.7% and the outcome (HaCat [2]) was “inactive”. For the same compound, the max response (KB-3-1) was inactive: 3.94% and the outcome (NIH3T3) was “inactive”.
For CCOP(=O)(CC)Oc1ccc([N+](=O)[O-])cc1 (stereo not drawn), the max response (CRL-7250 [1]) was inactive: -21.6%, the max response (HaCat [2]) was inactive: -3.12% and the outcome (KB-3-1) was “inactive”. The max response (NIH3T3) was inactive: -7.33%.
With CN(C)CCS the max response (KB-3-1) was inactive: 12.9%.
In the case of O=[N+]([O-])[O-].[NH4+], the max response (KB-3-1) is reported as inactive: 4.57%.
In the case of O=[N+]([O-])OCC(CO[N+](=O)[O-])(CO[N+](=O)[O-])CO[N+](=O)[O-], the max response (KB-3-1) is reported as inactive: 7.35%.
For C/C1=C2/N=C(C(CC(N)=O)C2(C)CCC(=O)NCC(C)OP(=O)([O-])OC2C(CO)OC(n3cnc4cc(C)c(C)cc43)C2O)C2(C)N=C(/C(C)=C3N=C(/C=C4N=C1C(CCC(N)=O)C\4(C)C)C(CCC(N)=O)C/3(C)CC(N)=O)C(CCC(N)=O)C2(C)CC(N)=O.[C-]#N.[Co] (stereo not drawn), the Z-AUC [5] was inactive: 1.4.
In the case of C/C1=C2N=C(/C=C3N=C(/C(C)=C4\[N-][C@@](C)([C@@H]5N=C1[C@](C)(CCC(=O)NC[C@@H](C)OP(=O)([O-])O[C@H]1[C@@H](O)[C@@H](n6cnc7cc(C)c(C)cc76)O[C@@H]1CO)[C@H]5CC(N)=O)[C@@](C)(CC(N)=O)[C@@H]4CCC(N)=O)[C@@](C)(CC(N)=O)[C@@H]\3CCC(N)=O)C(C)(C)[C@@H]/2CCC(N)=O.[C-]#N.[Co+3], the activity change, negative = inhibition [6] is reported as inactive: -44.5%, the activity change, negative = inhibition [7] is reported as inactive: -19.4% and the Potency [8] is reported as active: 3.16 µM. For the same compound, the activity change, negative = inhibition [9] was inactive: -25%, the Potency [10] was active: 3.55 µM and the activity change, negative = inhibition [11] was inactive: -16.1%. For the same compound, the activation [12] was inactive: -21.8% and the activity change, negative = inhibition [13] was inactive: -11.2%.
For CC1=C2[N-][C@@](C)([C@@H]3N=C(C(C)=C4N=C(C=C5N=C1[C@@](C)(CC(N)=O)[C@H]5CCC(N)=O)C(C)(C)[C@H]4CCC(N)=O)[C@](C)(CCC(=O)NC[C@@H](C)OP(=O)([O-])O[C@H]1[C@@H](O)[C@@H](n4cnc5cc(C)c(C)cc54)O[C@H]1CO)[C@H]3CC(N)=O)[C@@](C)(CC(N)=O)[C@@H]2CCC(N)=O.[C-]#N.[Co+3], the Potency [14] was active: 7.24 µM, the viability (% of DMSO) [15] was inactive: 103% and the viability (% of control) [16] was inactive: 88.7%.
With O=[N+]([O-])c1cccc([N+](=O)[O-])c1 the max response (HEK293) was inactive: 3.19%, the max response (HaCat [2]) was inactive: -1.95% and the max response (KB-3-1) was inactive: -1.67%. The max response (NIH3T3) was inactive: -5.54%.
In the case of CC(C)N(CCCl)C(C)C, the max response (KB-3-1) is reported as inactive: -14.2%.
In the case of CC(C)OP(=O)(F)OC(C)C, the max response (KB-3-1) is reported as inactive: 2.85%.
